Measurements from ChEMBL document CHEMBL2176955, “Discovery of the macrocycle 11-(2-pyrrolidin-1-yl-ethoxy)-14,19-dioxa-5,7,26-triaza-tetracyclo[19.3.1.1(2,6).1(8,12)]heptacosa-1(25),2(26),3,5,8,10,12(27),16,21,23-decaene (SB1518), a potent Janus kinase 2/fms-like tyrosine kinase-3 (JAK2/FLT3) inhibitor for the treatment of myelofibrosis and …” (J Med Chem, 2011).

Columns and labels:
[1] = biological target: Receptor-type tyrosine-protein kinase FLT3 (Homo sapiens, UniProt P36888, D835Y); assay: Inhibition of FLT3 D835Y mutant expressed in human MV4-11 cells; type: cell-based
[2] = biological target: Receptor-type tyrosine-protein kinase FLT3 (Homo sapiens, UniProt P36888); assay: Inhibition of recombinant FLT3 using Poly (Glu,Tyr) as substrate after 2 hrs by luminescence assay

## C1=C/COCc2cc(ccc2OCCN2CCCC2)Nc2nccc(n2)-c2cccc(c2)COC/1 (mixture of isomers) [PACRITINIB]
[1]
  IC50: 6 nM
[2]
  IC50: 22 nM
